This is an account of results in PubChem BioAssay AID540317 (National Center for Advancing Translational Sciences (NCATS), 2011).

Amino acid sequences for entries named in this document (tags omitted).
UniProt P83916, whole entry: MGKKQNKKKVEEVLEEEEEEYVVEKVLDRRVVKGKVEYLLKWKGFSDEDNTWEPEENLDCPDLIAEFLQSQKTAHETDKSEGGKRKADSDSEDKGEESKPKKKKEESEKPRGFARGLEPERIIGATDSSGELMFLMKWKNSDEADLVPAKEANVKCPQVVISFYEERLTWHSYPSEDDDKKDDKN

Only a part is listed here, and it is no random draw. Records with an inconclusive call do not appear. Activity calls are given as the source filed them. The call rests on the fitted dose curve; in most records, active means well fitted inhibition curve with a large enough effect; inconclusive means small, poorly fitted or top-dose-only effect; inactive means no such curve, though single readings can be large or run the other way.

For the test, the target named is Chromobox protein homolog 1 (Homo sapiens) (UniProt P83916). Put plainly: HTS for Inhibitors of HP1-beta Chromodomain Interactions with Methylated Histone Tails. Further: nearly all actives have a fitted effect of over 70% in size. Conditions: AlphaScreen HP1-beta / biotin-H3K9me3 peptide binding; at 114 µM (top of the series). On the technique in general: Bead proximity is the source of the signal in Alpha formats.
Consider `CCN(CC)C(=S)SC(NC=O)C(Cl)(Cl)Cl` (stereo unspecified), for which the activity change, negative = inhibition is inactive: 17.6%.
